From ChEMBL document CHEMBL5576122, “Discovery of Novel Azaphenothiazine Derivatives to Suppress Endometrial Cancer by Targeting GRP75 to Impair Its Interaction with IP3R and Mitochondrial Ca2+ Homeostasis” (J Med Chem, 2024)

Experiments:
Ishikawa [1] = test: cells; conditions: Homo sapiens, 48 h, read-out: Activity
Ishikawa [2] = test: cells; conditions: Homo sapiens, 48 h, read-out: Activity; remark: listed apart in the source
in vivo [3] = conditions: BALB/c, mouse, iv, 2 mg/kg
KLE [4] = test: animal or person; conditions: Mus musculus, po, 504 h, read-out: TGI
in vivo [5] = conditions: BALB/c, mouse, iv, 2 mg/kg; remark: listed apart in the source
in vitro [6] = conditions: mouse, liver microsomes
KLE [7] = test: cells; conditions: Homo sapiens, 48 h, read-out: Activity
KLE [8] = test: cells; conditions: Homo sapiens, 48 h, read-out: Activity; remark: listed apart in the source
in vivo [9] = conditions: BALB/c, mouse, po, 10 mg/kg
in vitro [10] = conditions: mouse, liver microsomes; remark: listed apart in the source
in vivo [11] = conditions: BALB/c, mouse, po, 10 mg/kg; remark: listed apart in the source
in vivo [12] = conditions: BALB/c, mouse, iv, 2 mg/kg; remark: listed apart in the source
in vitro [13] = conditions: plasma
in vitro [14] = conditions: human, liver microsomes
in vivo [15] = conditions: BALB/c, mouse, po, 10 mg/kg; remark: listed apart in the source
in vivo [16] = conditions: BALB/c, mouse, po, 10 mg/kg; remark: listed apart in the source
Ishikawa [17] = test: cells; conditions: Homo sapiens, 48 h, read-out: Activity; remark: listed apart in the source
in vivo [18] = conditions: BALB/c, mouse, po, 10 mg/kg; remark: listed apart in the source
in vitro [19] = conditions: human, liver microsomes; remark: listed apart in the source
in vivo [20] = conditions: BALB/c, mouse, po, 10 mg/kg; remark: listed apart in the source
KLE [21] = test: cells; conditions: Homo sapiens, 48 h, read-out: Activity; remark: listed apart in the source
KLE [22] = test: Inhibition of cell proliferation in human KLE cells incubated for 48 hrs by CCK-8 assay

## COc1ccc2c(c1)N(CCCCCN1CCC3(CCN(C)CC3)CC1)c1ncccc1S2
Ishikawa [1]
  viability at 0.5 µM: 93.8%
Ishikawa [2]
  viability at 1 µM: 90.8%
In vivo [3]
  half-life at 48 h: 38.5 h
KLE [4]
  inhibition in vivo at 2 mg/kg: 58%
In vivo [5]
  AUC(0-t) at 48 h: 440 ng·h/mL
In vitro [6]
  half-life: 1.07 h
KLE [7]
  viability at 3 µM: 84.5%
KLE [8]
  viability at 2 µM: 87.2%
In vivo [9]
  Tmax at 48 h: 1.33 h
In vitro [10]
  CLint scaled: 85.1 mL/min/kg
In vivo [11]
  AUC(0-t) at 48 h: 705 ng·h/mL
In vivo [12]
  AUC(0-inf) at 48 h: 659 ng·h/mL
In vitro [13]
  fraction unbound: 0.0349
In vitro [14]
  half-life: 1.11 h
In vivo [15]
  half-life at 48 h: 43.1 h
In vivo [16]
  bioavailability at 48 h: 32.1%
Ishikawa [17]
  viability at 2 µM: 39.4%
In vivo [18]
  AUC(0-inf) at 48 h: 1400 ng·h/mL
In vitro [19]
  CLint scaled: 18.7 mL/min/kg
In vivo [20]
  Cmax at 48 h: 67.5 ng/mL
KLE [21]
  viability at 4 µM: 79.7%

## CN1CCN(CCCCCN2c3cc(Cl)ccc3Sc3cccnc32)CC1.Cl.Cl
KLE [22]
  IC50: 10.3 µM
In vitro [6]
  half-life: 0.0533 h
In vitro [10]
  CLint scaled: 1710 mL/min/kg
In vitro [13]
  fraction unbound: 0.0084
In vitro [14]
  half-life: 0.415 h
In vitro [19]
  CLint scaled: 50 mL/min/kg
